Apparent affinities of Ab-14 variants for a coronavirus HR2 peptide

Values reported by Li et al. 2023, doi:10.1038/s41467-023-39022-2 (FLAb copy).

The target is the same throughout: PDVDLGDISGINAS, from the HR2 region of SARS-CoV-2 spike.

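The starting antibody came from a phage panning campaign against this peptide. Designed CDR sequences, proposed from the first random library and measured here. Several design methods are mixed in this list. AlphaSeq pools MATa yeast showing the antibodies with MATalpha yeast showing the peptide. After mating in shaken culture at 30 °C for 16 h, diploids were selected and their barcode pairs sequenced. A regression on co-assayed BCL2-family reference pairs converts the normalised counts of each replicate to an apparent Kd. There are six technical replicates.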

Parent: Ab-14, a human scFv built as VH, the linker GGGGSGGGGSGGGGS, VL. Only the CDRs of the heavy chain vary.
VH: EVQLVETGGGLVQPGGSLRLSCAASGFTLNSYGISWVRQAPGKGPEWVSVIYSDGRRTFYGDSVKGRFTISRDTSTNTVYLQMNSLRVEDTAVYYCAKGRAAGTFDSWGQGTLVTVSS
VL: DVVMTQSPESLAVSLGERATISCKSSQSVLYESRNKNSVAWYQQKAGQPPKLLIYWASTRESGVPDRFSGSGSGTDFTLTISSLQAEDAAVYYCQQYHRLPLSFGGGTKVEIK

Changes read parent residue, position, new residue, counted from the first residue of the VH shown. Variants here have at most six changes. Numbers give log10(Kd / nM), so 0 is 1 nM and 3 is 1 µM. Smaller is tighter. An entry "nd" has no value in the source: the pair was not observed among the diploids in that replicate. This suggests poor binding but is not conclusive.

| changes | replicates, log10 nM |
|---|---|
| T28C/N30E/R100F/A102R/D106E | nd / nd / nd / nd / nd / nd |
| N30D/S53R/A101R/F105Y/D106L | nd / nd / nd / nd / nd / nd |
| T28A/G103L | nd / nd / nd / nd / nd / nd |
| T28E/S31E/R56K/S63Q/A101T | 0.42 / 0.06 / -0.24 / 0.14 / -0.03 / 0.21 |
| F27Y/F59A | nd / nd / 0.79 / nd / 0.85 / nd |
| S31Q/R56E/R100G | nd / nd / nd / nd / nd / nd |
| T28N/S31E/S63Q/A101T | 0.13 / -0.37 / -0.38 / -0.01 / -0.08 / 0.09 |
| G61D/R100N/A101L | 0.19 / 0.22 / -0.27 / 0.36 / -0.26 / -0.20 |
| S53F/S63D/R100D/A101T/S107T | 1.05 / 0.58 / 1.12 / 1.68 / 0.72 / 0.99 |
| S31D/G61T/D106I | nd / nd / nd / nd / nd / nd |
| S31E/G61S/T104K/D106T | nd / nd / nd / nd / nd / nd |
| T28E/N30L/S53A/F59H | 0.90 / 2.08 / 0.71 / 1.46 / 0.93 / 1.20 |
| N30D/R56Y | 0.96 / nd / nd / 0.81 / 0.60 / nd |
| T28E/S31E/G61A/S63M/R100K | 1.21 / 0.76 / 0.92 / 0.99 / 0.54 / 1.07 |
| T28E/S31E/A101L | 0.36 / 0.47 / 0.03 / -0.27 / 0.48 / 0.90 |
| G61H/G99V/G103S/T104V | nd / nd / nd / 1.34 / nd / nd |
| T28E/A101T/S107T | 0.39 / -0.08 / 0.15 / 0.09 / 0.12 / -0.05 |
| T28G/S31E/A101E | -0.14 / 0.52 / 0.18 / -0.76 / -0.43 / -0.08 |
| T28Q/S31E/R100K/A101T/S107T | 0.26 / 0.45 / 0.30 / 0.41 / -0.06 / 0.69 |
| T28S/R100M/S107K | 0.82 / 0.60 / 0.64 / 1.15 / 0.11 / 0.70 |
| R56Y/A101V | nd / 1.66 / 0.36 / 0.92 / nd / 2.38 |
| T28S/S31E/R100S/A101T | -0.80 / -1.11 / -0.82 / -1.16 / -1.54 / 0.09 |
| T28S/G61V/R100Q/S107L | 1.47 / 1.95 / 0.93 / 1.92 / 1.04 / 1.13 |
| T28E/R100V/A101L/S107T | 0.13 / 0.01 / 0.08 / 0.00 / -0.36 / 0.46 |
| S31E/R100K/S107T | 0.43 / 0.62 / nd / 0.22 / 0.40 / 0.82 |
| G26K/T28E/S53A/R100K | nd / nd / nd / nd / nd / nd |
| S31D/F59M/A101I | 0.23 / 0.35 / 0.45 / -0.14 / 0.17 / 0.36 |
| S31Q/G61S/A101H | 2.22 / 3.69 / 2.01 / 3.04 / 3.39 / 1.73 |
| R56K/G61I/R100K/A101V | -0.30 / 0.37 / nd / nd / nd / nd |
| N30T/S31K/S63K/R100G/A102M/S107V | nd / nd / nd / nd / nd / nd |
| G61T/A101E | nd / nd / nd / nd / nd / nd; 0.32 / 0.21 / 0.67 / -0.26 / -0.12 / -0.09 |
| S31I/D54K/G103L/D106I | nd / nd / nd / nd / nd / nd |
| F59Q/A101F | nd / nd / nd / nd / nd / 2.55 |
| N30D/G61A/S107V | 0.63 / 0.79 / 0.13 / 0.32 / 0.32 / 0.47 |
| T28E/R56K/A101V | -0.10 / -0.36 / -0.53 / 0.21 / -0.24 / -0.47 |
| T28G/S31E/G61C/A101T | 0.92 / 0.64 / 1.04 / 1.20 / 0.52 / 0.80 |
| G26K/T28D/G61Q/R100E | nd / 0.78 / nd / 1.60 / nd / nd |
| G26L/S31E/A101T | nd / nd / 0.57 / nd / nd / nd |
| S31D/G61I/S63Q/R100N | 0.70 / 0.22 / -0.05 / 0.09 / 0.35 / 0.70 |
| T28D/L29A/S63Y/T104W/D106N | nd / nd / nd / nd / nd / nd |
| S31M/I34Q/D54H/F59Q/G61I/S107Y | nd / nd / nd / nd / nd / nd |
| R56E/G61I | 1.15 / nd / 2.37 / nd / 1.22 / 1.48 |
| F59H/G103C/D106W | nd / nd / nd / nd / nd / nd |
| T28C/S31D/G61A/S107M | nd / nd / nd / nd / nd / nd |
| R100W/A102K | 1.83 / 3.02 / 1.66 / nd / 2.15 / 3.43 |
| G26Q/F27P/G61T/S63D | nd / nd / nd / nd / nd / nd |
| S31D/K65R/D106F | nd / nd / nd / nd / nd / nd |
| T28D/S31E/S53A/G61V/R100N/A101N | -0.15 / -0.52 / -0.96 / -0.49 / -0.69 / -0.43 |

Top 4 of the variants detected in all replicates, tightest first:

| changes | replicates, log10 nM |
|---|---|
| T28S/S31E/R100S/A101T | -0.80 / -1.11 / -0.82 / -1.16 / -1.54 / 0.09 |
| T28D/S31E/S53A/G61V/R100N/A101N | -0.15 / -0.52 / -0.96 / -0.49 / -0.69 / -0.43 |
| T28E/R56K/A101V | -0.10 / -0.36 / -0.53 / 0.21 / -0.24 / -0.47 |
| T28G/S31E/A101E | -0.14 / 0.52 / 0.18 / -0.76 / -0.43 / -0.08 |

The authors' rule: three or more of the six replicates give a measured affinity, fewer mean a poor binder. Empty control strains, which show no peptide, gave a signal in 1% of pairings with all heavy chain designs; the median was 2.08 and 95% of these signals were weaker than 0.84. No background was subtracted. Where one sequence has several entries in the source, the replicates are listed entry by entry, parted by semicolons. Of ten entries with the parent sequence, four were seen in most replicates (averages 0.34 to 2.37), three in one and three in none, so single entries are noisy. A sequence measured in both rounds can read differently, since the two assays cover different ranges.